The values that follow come from ChEMBL document CHEMBL5500420, “Discovery of BI-9508, a Brain-Penetrant GPR88-Receptor-Agonist Tool Compound for In Vivo Mouse Studies” (J Med Chem, 2024).

Molecules are shown by their SMILES.

This series can be described thus: Metabolic stability in mouse liver microsomes assessed as hepatic blood flow at 1 uM in presence of NADPH by LC-MS/MS analysis. For orientation: Liver microsomes are a subcellular fraction often used to study metabolism.
For `CC(C)Oc1ccc(-c2ccc(N(CCOC(F)F)C(=O)[C@@H]3C[C@H]3c3ccncn3)c3ncnn23)cc1`, the QH amounted to 0.77.

Take `CC(C)Oc1ccc(-c2ccc(N(CCOC(F)F)C(=O)[C@@H]3C[C@H]3c3ccncn3)c3oncc23)cc1`: the QH worked out at 0.27.

For `COc1cc(-c2ccc(O[C@@H](C)C(F)(F)F)nc2)ccc1N(CCOC(F)F)C(=O)[C@@H]1C[C@H]1c1ccncn1`, the QH worked out at 0.4.
